Measured values published in patent US20240246905A1 (University of Leicester, priority 2021, published 2024).

phenol vinyl isocyanide [(E)-4]
storage stability (dilute solution in acid free chloroform in the dark at −10° C.): several weeks without decomposition | stability on standing at rt (rt): readily polymerizing
